Reference: paper PMC5386136

The chains behind the UniProt entries cited, without tags or fusion partners. Where a name states a change or a piece, a line headed by the entry shows the natural chain unless it says otherwise.
UniProt Q9WV48: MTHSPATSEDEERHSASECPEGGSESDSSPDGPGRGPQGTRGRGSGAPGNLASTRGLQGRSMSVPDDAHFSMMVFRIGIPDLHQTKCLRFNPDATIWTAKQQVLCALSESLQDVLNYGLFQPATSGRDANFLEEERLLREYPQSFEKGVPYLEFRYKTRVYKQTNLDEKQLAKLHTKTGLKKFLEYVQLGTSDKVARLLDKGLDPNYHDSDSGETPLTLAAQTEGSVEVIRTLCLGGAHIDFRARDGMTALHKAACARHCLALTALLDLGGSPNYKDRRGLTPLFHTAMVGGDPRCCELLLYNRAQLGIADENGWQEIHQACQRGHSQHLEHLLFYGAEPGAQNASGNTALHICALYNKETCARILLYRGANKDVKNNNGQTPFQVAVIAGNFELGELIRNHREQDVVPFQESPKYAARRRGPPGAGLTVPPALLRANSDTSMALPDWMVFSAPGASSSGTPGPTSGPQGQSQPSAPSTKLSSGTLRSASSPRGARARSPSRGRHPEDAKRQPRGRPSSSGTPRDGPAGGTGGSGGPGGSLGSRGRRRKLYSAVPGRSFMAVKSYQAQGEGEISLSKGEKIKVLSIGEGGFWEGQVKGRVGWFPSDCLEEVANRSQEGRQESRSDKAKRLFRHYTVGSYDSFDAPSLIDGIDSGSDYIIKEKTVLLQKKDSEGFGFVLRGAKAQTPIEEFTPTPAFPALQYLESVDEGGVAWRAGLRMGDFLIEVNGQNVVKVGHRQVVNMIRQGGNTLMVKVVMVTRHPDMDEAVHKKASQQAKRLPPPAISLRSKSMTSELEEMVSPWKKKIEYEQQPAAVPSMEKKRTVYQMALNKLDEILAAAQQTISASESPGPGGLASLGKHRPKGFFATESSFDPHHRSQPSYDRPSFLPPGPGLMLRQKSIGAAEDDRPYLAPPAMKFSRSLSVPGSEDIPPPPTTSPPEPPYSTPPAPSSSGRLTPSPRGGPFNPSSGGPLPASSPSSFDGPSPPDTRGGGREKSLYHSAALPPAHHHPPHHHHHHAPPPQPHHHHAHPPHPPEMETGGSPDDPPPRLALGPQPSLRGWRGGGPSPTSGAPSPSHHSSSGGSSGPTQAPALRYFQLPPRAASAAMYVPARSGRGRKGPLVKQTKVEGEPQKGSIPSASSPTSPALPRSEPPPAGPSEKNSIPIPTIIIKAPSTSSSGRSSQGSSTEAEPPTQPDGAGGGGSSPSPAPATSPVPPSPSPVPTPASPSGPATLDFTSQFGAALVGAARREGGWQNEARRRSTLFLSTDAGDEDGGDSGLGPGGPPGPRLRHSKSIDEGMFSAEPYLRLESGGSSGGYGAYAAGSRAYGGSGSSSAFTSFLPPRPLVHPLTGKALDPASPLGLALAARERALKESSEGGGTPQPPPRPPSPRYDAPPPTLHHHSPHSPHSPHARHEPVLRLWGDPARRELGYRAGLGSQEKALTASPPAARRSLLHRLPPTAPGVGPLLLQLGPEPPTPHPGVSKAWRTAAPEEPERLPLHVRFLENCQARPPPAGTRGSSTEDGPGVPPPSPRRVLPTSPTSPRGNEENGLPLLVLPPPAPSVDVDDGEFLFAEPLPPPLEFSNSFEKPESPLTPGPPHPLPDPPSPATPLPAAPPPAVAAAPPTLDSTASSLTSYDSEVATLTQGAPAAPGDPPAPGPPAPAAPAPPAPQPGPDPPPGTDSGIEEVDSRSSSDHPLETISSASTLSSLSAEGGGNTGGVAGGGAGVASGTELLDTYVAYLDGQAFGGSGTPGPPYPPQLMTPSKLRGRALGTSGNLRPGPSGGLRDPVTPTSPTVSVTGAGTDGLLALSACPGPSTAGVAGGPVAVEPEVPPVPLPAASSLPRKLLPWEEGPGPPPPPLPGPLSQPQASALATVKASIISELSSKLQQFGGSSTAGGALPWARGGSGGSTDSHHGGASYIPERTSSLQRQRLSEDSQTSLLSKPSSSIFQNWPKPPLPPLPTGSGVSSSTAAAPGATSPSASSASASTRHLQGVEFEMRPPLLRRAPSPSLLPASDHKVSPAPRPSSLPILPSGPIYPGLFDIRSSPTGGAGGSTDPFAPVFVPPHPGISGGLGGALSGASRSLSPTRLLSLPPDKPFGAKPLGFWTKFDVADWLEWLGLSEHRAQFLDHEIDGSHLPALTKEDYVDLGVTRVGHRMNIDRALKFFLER

Legend:
[1] = biological target: SHANK1 SPN (rat) (UniProt Q9WV48); test: ITC
[2] = biological target: SHANK3 SPN-ARR (residues 1-348) (rat); test: ITC

Kd [1]: 5.9 µM
Kd [2]: 3.3 µM
Substance: Human H-Ras (recombinant) (from UniProt P01112 1-189) (natural protein)
